Experimental data reported in patent publication US8329716B2, “Hetaryloxy-substituted phenylamino pyrimidines as Rho kinase inhibitors” (Bayer Intellectual Property GmbH, priority 2004, dated 2012).

Tested on: isolated saphenous artery of rabbits
Assay: Vessel-relaxing action in vitro, phenylephrine-induced contractions of isolated saphenous artery rings
Conditions: Oryctolagus cuniculus; concentration reducing phenylephrine-induced contraction of rabbit saphenous artery rings by 50% of control
Procedure: The inhibition of the enzyme is investigated in an in vitro assay with recombinant Rho kinase II. The vessel-relaxing action is determined using phenylephrine-induced contractions of isolated rings of the saphenous artery of rabbits.
Vessel-Relaxing Action In Vitro
Individual 3-mm-wide rings of the isolated saphenous artery of rabbits are introduced into 5 ml organ baths with Krebs-Henseleit solution (37° C., gassed with carbogen). The vessel tone is monitored isometrically and registered. Contractions are induced by addition of […] of phenylephrine/ml, which is washed out again after 4 min. After a number of control cycles, the rings are preincubated with the substance to be examined, with the dosage being increased for each further cycle, and the subsequent contraction is compared to the intensity of the last control contraction.

Cc1c[nH]c2nccc(Oc3ccc(Nc4cc(Cl)nc(N)n4)cc3F)c12 [Example 5, 6-Chloro-N^4-{3-fluoro-4-[(3-methyl-1H-pyrrolo[2,3-b]pyridin-4-yl)oxy]phenyl}pyrimidine-2,4-diamine] showed an IC50 of 100 nM.
